pIC50: −log10 of the molar value.
Key:
[1] = Pharmacokinetics of ROS with single-dose GLT in rats; details: ROS 10 mg/kg
[2] = Pharmacokinetics of ROS after 10-day multiple-dose GLT in rats; details: ROS 10 mg/kg
[3] = molecular target: recombinant human CYP2C9 (RHCYP2C9) (Homo sapiens, UniProt P11712); assay: Inhibition of RHCYP2C9 yeast microsomes, probe substrate diclofenac
Experimental: RHCYP2C8 and RHCYP2C9 yeast microsomes were extracted using the glass bead crushing method and differential centrifugation, with grinding 15 times by 0.5 g glass beads and centrifugation at 9,000 g for 20 min at 4 °C. The supernatant was then centrifuged at 100,000 g at 4 °C (BECKMAN COULTER Optima™ L-80 XP Ultracentrifuge) for 1 h, and the precipitation was RHCYP2C8 or RHCYP2C9 yeast microsome. Reconstituted with potassium phosphate buffer (pH 7.4), the microsome solution was collected and stored at −80 °C for subsequent examination. Protein concentrations of microsomes were determined using the Lowry method.
Amodiaquine and diclofenac are typical CYP2C8 and CYP2C9 probe substrates, respectively. […] The reactions were initiated by the addition of NADPH with pre-incubation 10 min in advance and carried out for 40 min.
The CYP2C8 sample treatment process was that incubation was terminated by adding 200 μL of methanol. Samples were centrifuged at 12,000 rpm for 10 min, and the supernatant was subjected to HPLC. The CYP2C9 sample treatment process was that each sample (100 μL) was spiked with 10 μL of carbamazepine (30 μg/mL). The mixture was then extracted with 500 μL ethyl acetate by vortexing for 3 min and centrifuged at 12,000 rpm for 10 min. […] The residue was dissolved in 100 μL methanol for HPLC analysis.

The chains behind the UniProt entries cited, without tags or fusion partners.
UniProt P11712, whole entry: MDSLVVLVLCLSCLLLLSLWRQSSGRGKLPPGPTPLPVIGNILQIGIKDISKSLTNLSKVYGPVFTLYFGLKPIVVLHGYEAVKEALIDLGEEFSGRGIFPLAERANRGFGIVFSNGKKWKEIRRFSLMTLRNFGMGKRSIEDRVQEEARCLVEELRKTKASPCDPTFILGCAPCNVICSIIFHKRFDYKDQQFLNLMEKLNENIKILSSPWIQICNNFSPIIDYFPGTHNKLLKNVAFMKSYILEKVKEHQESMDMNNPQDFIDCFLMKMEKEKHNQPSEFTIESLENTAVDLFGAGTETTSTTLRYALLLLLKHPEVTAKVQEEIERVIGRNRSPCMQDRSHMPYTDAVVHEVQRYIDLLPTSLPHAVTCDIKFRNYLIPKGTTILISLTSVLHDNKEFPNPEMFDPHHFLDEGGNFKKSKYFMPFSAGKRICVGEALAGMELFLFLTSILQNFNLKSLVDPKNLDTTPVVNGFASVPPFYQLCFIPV

[4] = multiple-dose GLT 100 mg/kg 10 days
[5] = multiple-dose GLT 200 mg/kg 10 days

CN(CCOc1ccc(CC2SC(=O)NC2=O)cc1)c1ccccn1 (stereo not drawn) [ROS, Rosiglitazone]
increase of t1/2 vs control ([1]; single-dose GLT 100 mg/kg): 30%
increase of t1/2 vs control ([1]; single-dose GLT 200 mg/kg): 52%
differences in AUC0-t, Cmax, and Tmax of ROS vs control ([1]; single-dose GLT 100 or 200 mg/kg): no significant difference
downregulation (decrease) of t1/2 vs control [2, 4]: 28%
increase of CL/F vs control [2, 4]: about 80%
reduction of AUC0-t vs control [2, 4]: 39%
reduction of Cmax vs control [2, 4]: 26%
downregulation (decrease) of t1/2 vs control [2, 5]: 39%
increase of CL/F vs control [2, 5]: ~110%
reduction of AUC0-t vs control [2, 5]: 52%
reduction of Cmax vs control [2, 5]: 27%

O=c1c(O)c(-c2ccc(O)c(O)c2)oc2cc(O)cc(O)c12 [quercetin]
pIC50 [3]: 4.56
